# Yeast mating assay B: variants of the scFv Ab-14

Reference: Li et al. 2023, doi:10.1038/s41467-023-39022-2. File: FLAb, binding data.

All variants were tested on one target, the spike HR2 peptide PDVDLGDISGINAS (SARS-CoV-2).

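Phage display of a naive human antibody library on the peptide gave the parent. Designed CDR sequences, proposed from the first random library and measured here. Several design methods are mixed in this list. AlphaSeq pools MATa yeast showing the antibodies with MATalpha yeast showing the peptide. Binding brings cells together so that they mate, and sequencing counts the barcode pairs among the diploids. A regression on co-assayed BCL2-family reference pairs converts the normalised counts of each replicate to an apparent Kd. There are six technical replicates.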

Parent scFv Ab-14: VH joined to VL by three GGGGS repeats. Changes lie in the light chain CDRs alone.
VH: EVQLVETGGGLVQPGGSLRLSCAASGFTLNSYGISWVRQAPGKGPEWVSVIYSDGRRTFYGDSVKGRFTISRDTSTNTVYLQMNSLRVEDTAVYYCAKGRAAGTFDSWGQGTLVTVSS
VL: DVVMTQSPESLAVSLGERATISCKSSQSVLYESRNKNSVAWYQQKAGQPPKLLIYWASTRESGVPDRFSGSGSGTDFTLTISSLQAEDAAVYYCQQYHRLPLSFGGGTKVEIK

Each variant is given by its three light chain CDRs, as the data file delimits them; those of the parent are KSSQSVLYESRNKNSVA, WASTRES, QQYHRLPLS.
This list holds designs with more than six substitutions.
Values are apparent Kd, the geometric mean of the replicates that gave a signal; lower means stronger binding.
"nd" marks a missing value. The strain was present, yet no cells mated with the target were sequenced in any replicate, which points to weak or no binding.
Nonspecific signal, from three strains lacking the peptide, appeared in 4% of pairings of all light chain designs, centred on 430 nM (5% of these signals below 38 nM); values are not corrected for it. The control count says in how many pairings with the empty strains this scFv gave a signal.
In the paper, a design with two or fewer of six values counts as a poor binder.
The range of this assay differs from that of the first round, and the authors advise against merging the two.

Variant TISDLMHMESRNVNSVA | DLVKRES | QQYHRLPLS showed 850 pM (6 of 6 replicates; controls 3 of 18). For NLSMELEDMGVKTGSIA | ENQLTEY | QQYARLPLM, the assay gave nd (0 of 6 replicates; controls 0 of 18). For KISGLYQKESKNKNSVA | EMVNRES | QQYDRLPLS, the assay gave 6.7 nM (6 of 6 replicates; controls 0 of 18). For KVSEFMKGLMMMKDSIA | DNNTRGS | QQYDRLPLS, the assay gave 85 nM (3 of 6 replicates; controls 0 of 18). Variant KLVNFMNRGTHHTSNIA | DAQNRID | QQYARLPLA gave 14 nM (6 of 6 replicates; controls 1 of 18). For KLQWSHLYGSRMKNSVA | HASQRES | QCYHRLPLS, the assay gave 880 nM (2 of 6 replicates; controls 0 of 18). Variant HIQYGMMVHGRHSKSIA | QAETRAK | QQYDRLPLI gave 50 nM (4 of 6 replicates; controls 0 of 18). Variant TISQVMNTLTREGNNVA | DLAEREH | QQYFRLPLS showed 9.0 nM (6 of 6 replicates; controls 1 of 18).

For KLQMSHGYGSRMKNSVA | QASQREE | QQYHRLPLS, the assay gave 3.1 nM (6 of 6 replicates; controls 1 of 18). Variant KMHTLMYTANIGENSVA | DANLHVD | QQYFRLPLS gave 8.1 nM (6 of 6 replicates; controls 0 of 18). Variant KVSQSTLYEDGNSNSVA | NASVRES | QQYHRLPLS showed 500 pM (6 of 6 replicates; controls 0 of 18). Variant MISQLMNMGQFAINSVA | QAAIRNQ | QQYDRLPLA showed 370 nM (1 of 6 replicates; controls 0 of 18). Variant MISQLYNMGTFAINSVA | QASQRNA | QQYDRLPLM showed 23 nM (6 of 6 replicates; controls 0 of 18). Variant KLTQVTHSEHKNKNSIA | EMVTREK | QQYDRLPLS gave 27 nM (6 of 6 replicates; controls 1 of 18). For KVSYLGLYGSRNKNSVA | EASTRES | QQYHRLPLD, the assay gave 2.9 nM (6 of 6 replicates; controls 2 of 18). Variant YAQMPFHEVGKDEQNIA | NATIRES | QQYFRLPIL showed 2.4 nM (6 of 6 replicates; controls 2 of 18).

Variant HSSPSWLYDSRNKNHVA | DAMTRES | QQYHRLPLS showed 640 pM (6 of 6 replicates; controls 0 of 18). Variant KLAMILSMEFGTYHGVA | DADHKAD | QQYNRLPLS gave 5.8 nM (6 of 6 replicates; controls 1 of 18). For KLGQMTAIESRNLNSVA | QMDTRES | QQYHHLPLS, the assay gave 3.4 nM (6 of 6 replicates; controls 0 of 18). Variant KLYQVTTHHGAALNNIA | EGARRND | QQYARLPLV showed 2.6 nM (6 of 6 replicates; controls 0 of 18). Variant KISQMVTYESTWHNAIA | QTSEREP | QQYHRLPFS gave 2.5 nM (6 of 6 replicates; controls 0 of 18). With KIMQSEYYEDRNKMSVA | DASQRLS | QQYHRLPLS the result was 530 pM (6 of 6 replicates; controls 0 of 18). With KLSQSWLYQSRNSNAVA | EASQREQ | QQYHRLPLS the result was 1.3 nM (6 of 6 replicates; controls 0 of 18). For KISFLDYRGSQWHNNIA | EGSQRAE | QQYSRLPLN, the assay gave 59 nM (6 of 6 replicates; controls 1 of 18).

For IVSQLMLWGWSAKNSIA | EAVTRYN | QQYDRLPLF, the assay gave 110 nM (1 of 6 replicates; controls 0 of 18). Variant MISEVMNTLTRHGNNVA | DLTERED | QQYFRLPLS gave 6.6 nM (6 of 6 replicates; controls 0 of 18). For MMSQVTGMGQHHRNNVA | QTSTREP | QQYDRLPLI, the assay gave 13 nM (6 of 6 replicates; controls 3 of 18). Variant TISQSAQMESHNKNSVA | DLNMRGS | QQYDRLPLS showed 2.2 nM (6 of 6 replicates; controls 3 of 18). For KCSQGLLYENRNKPSVA | QASTREH | QQYHRLPLS, the assay gave 30 nM (6 of 6 replicates; controls 3 of 18). With MISQLMNMGQFAINSVA | QASIRNI | QQYDRLPLA the result was 1.9 nM (6 of 6 replicates; controls 2 of 18). With KLSIMYQHTSRQKNNIA | ERSTREE | QQYHHLPLS the result was 9.8 nM (6 of 6 replicates; controls 2 of 18). For KFVQSDDYESRNKNSVA | QASQREQ | QQYHRLPLS, the assay gave 920 pM (6 of 6 replicates; controls 2 of 18).

Variant IVSQLMLWGMHVKNSIA | EAVTRLN | QQYDRLPLM showed 35 nM (2 of 6 replicates; controls 1 of 18). For MLTNETDGNYGRNNSVA | NAEELMT | QAYFRLPIT, the assay gave 50 nM (6 of 6 replicates; controls 0 of 18). For KISQMVTYESTWHNAIA | QVSEREE | QQYHRLPLS, the assay gave 8.3 nM (6 of 6 replicates; controls 1 of 18). Variant TLGQVTMQLSRNKNSVA | DASTSED | QQYNRLPLS showed 19 nM (6 of 6 replicates; controls 2 of 18). Variant MLSQMWALGMKVSNSVA | QVSTRFE | QQYDRLPLE gave 61 nM (3 of 6 replicates; controls 0 of 18). Variant KVMQSVLQGQRNKNSVA | EASTRER | QQYHRLPLS gave 11 nM (6 of 6 replicates; controls 0 of 18). Variant MFDQQLMTEWDKNNSVA | EENHLYN | QQYAQLPLI gave 69 nM (6 of 6 replicates; controls 1 of 18). Variant MMSSLMGYESRHINNVA | QTSTRED | QQYDRLPLV showed 2.2 nM (6 of 6 replicates; controls 2 of 18).

For HLGLATMLEEYVRNSVA | NNSTREV | QQYDRLPLS, the assay gave 650 nM (5 of 6 replicates; controls 1 of 18). Variant SISGFMKSLSAHINNVA | DMTNRED | QQYDRLPLS gave 4.1 nM (6 of 6 replicates; controls 1 of 18). For TISQMSTLFSQSIQNVA | EVSTRLN | QQYDRLPLA, the assay gave 3.3 nM (6 of 6 replicates; controls 4 of 18). For KVSGFMRGLTQRKDSIA | DNNTRSN | QQYDRLPLS, the assay gave 4.3 µM (2 of 6 replicates; controls 0 of 18). For KLDQWQDYESRNKNSVA | QASTREQ | QQYHRLPLS, the assay gave 470 pM (6 of 6 replicates; controls 1 of 18). Variant DFALDQDSMGDAKNSIA | DRNTKAH | QQYSRLPLV showed 3.6 nM (6 of 6 replicates; controls 1 of 18). With KVSQSDLYEQRMKQSVA | NASERES | QQYHRLPLS the result was 1.9 nM (6 of 6 replicates; controls 1 of 18). For IISQVDGYLMHNTNSIA | DQTTRGK | QQYDRLPLS, the assay gave 2.8 nM (6 of 6 replicates; controls 1 of 18).

With NFSMALEDMDVKTKSIA | ENQLTEY | QQYAKLPLM the result was 44 nM (6 of 6 replicates; controls 1 of 18). For TISQLYNMGQFAINSVA | QASTRNE | QQYDRLPLM, the assay gave 7.3 nM (6 of 6 replicates; controls 3 of 18).